The values below come from paper PMC12214610.

Chains of the proteins cited; added tags and fusions are not shown. A line that says so, or that is headed by a name, gives the form on record, which may keep a tag or linker.
Serine/threonine-protein phosphatase 2A catalytic subunit alpha isoform, one chain, as listed by the source: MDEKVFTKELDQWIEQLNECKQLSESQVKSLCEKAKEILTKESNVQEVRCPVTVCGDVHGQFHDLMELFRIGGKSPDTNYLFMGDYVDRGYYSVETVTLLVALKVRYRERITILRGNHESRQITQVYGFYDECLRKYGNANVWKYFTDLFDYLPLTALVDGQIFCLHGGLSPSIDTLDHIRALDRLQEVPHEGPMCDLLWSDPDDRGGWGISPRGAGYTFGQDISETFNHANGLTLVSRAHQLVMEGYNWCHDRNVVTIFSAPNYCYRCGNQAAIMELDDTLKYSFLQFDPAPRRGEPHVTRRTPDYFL

Experiment [1] addresses T1, Serine/threonine-protein phosphatase 2A 55 kDa regulatory subunit B alpha isoform (UniProt P63151).
T1 sequence: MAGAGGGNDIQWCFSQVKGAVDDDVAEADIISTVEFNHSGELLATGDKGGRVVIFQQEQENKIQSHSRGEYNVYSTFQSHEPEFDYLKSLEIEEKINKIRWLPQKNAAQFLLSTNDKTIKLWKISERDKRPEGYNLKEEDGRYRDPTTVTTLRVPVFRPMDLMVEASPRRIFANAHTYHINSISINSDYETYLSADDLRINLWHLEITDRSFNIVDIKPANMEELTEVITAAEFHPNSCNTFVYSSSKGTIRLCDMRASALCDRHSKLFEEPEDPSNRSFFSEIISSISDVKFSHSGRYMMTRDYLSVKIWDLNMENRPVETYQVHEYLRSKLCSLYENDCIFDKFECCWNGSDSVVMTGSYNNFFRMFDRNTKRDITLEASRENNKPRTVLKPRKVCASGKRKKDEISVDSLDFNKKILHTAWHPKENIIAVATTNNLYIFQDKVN

Experiment [2] deals with Serine/threonine-protein phosphatase 2A catalytic subunit alpha isoform.

Consider “Serine/threonine-protein phosphatase 2A 65 kDa regulatory subunit A alpha isoform”, for which the “listed as a hit” value in experiment [1] and in experiment [2] was “yes” each time.
